Only a part is listed here, and it is no random draw. Active and inactive are the calls of the source.

Protein sequences, listed by entry. Tags and fused reporters are not part of them.
UniProt P09923, whole entry: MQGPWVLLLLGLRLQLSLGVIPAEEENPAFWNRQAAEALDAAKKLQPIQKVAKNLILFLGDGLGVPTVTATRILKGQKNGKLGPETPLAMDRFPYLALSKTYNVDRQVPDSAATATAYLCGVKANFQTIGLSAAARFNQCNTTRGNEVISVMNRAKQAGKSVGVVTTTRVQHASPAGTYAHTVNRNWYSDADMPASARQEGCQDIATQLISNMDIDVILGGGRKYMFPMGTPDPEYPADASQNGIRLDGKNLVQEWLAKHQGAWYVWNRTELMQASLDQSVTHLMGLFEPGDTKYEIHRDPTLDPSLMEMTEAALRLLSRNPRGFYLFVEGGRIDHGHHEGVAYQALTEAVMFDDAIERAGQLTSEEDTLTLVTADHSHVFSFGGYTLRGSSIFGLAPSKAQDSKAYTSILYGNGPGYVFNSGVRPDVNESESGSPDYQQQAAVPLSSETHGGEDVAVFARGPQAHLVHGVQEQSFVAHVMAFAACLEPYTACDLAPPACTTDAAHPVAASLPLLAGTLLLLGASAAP

This experiment addresses Intestinal-type alkaline phosphatase (Homo sapiens) (UniProt P09923). Description: human IAP activators, primary screen, biochemical, luminescence, uHTS (AID 2524). The following applies: purified human IAP, CDP-Star luminescence, 30 min; at 10 µM; active compounds read high; 1 = vehicle-only enzyme, 0 = enzyme-free background.
`CCC(=O)N(c1ccccc1)C1(COC)CCN(CCc2cccs2)CC1`: the activation factor was inactive: 1.12.
`CCC(=O)N(c1ccccc1)C1(COC)CCN(CCn2nnn(CC)c2=O)CC1`: the activation factor was inactive: 0.965.

The values above are taken from PubChem BioAssay AID2524 (Sanford-Burnham Center for Chemical Genomics, 2010).
